Test results published in US20170226139A1, “CRYSTALLINE SALTS OF (Z)-O-OCTADEC-9-EN-1-YL O,O-DIHYDROGEN PHOSPHOROTHIOATE” (priority 2013, published 2017).

Assay: Rx100 salt screening (solid formation, XRPD wet/dry, filterability, exposure to RH > 90%)
Conditions: for All solvents were evaporated to get a gel: label = base, nature/filterability of the solid
Procedure: We designed a complex and unconventional screening regime to screen for Rx100 crystalline salts. […] The screening regime is described as follows.
Rx100.FA in the form of a viscous liquid and eighteen counter ions were used as starting materials. These counter ions are listed and numbered in Table 4. The numbers will be used for grouping the resulting solids. The screening was performed in three stages.
Stage one (1) included screening 11 counter ions: sodium hydroxide, ammonium hydroxide, ethylenediamine, diethylamine, tromethamine (Tris), hydroxyethyl morpholine, benzathine, dimethylamino ethanol, L-Arginine, L-Lysine, L-Histidine. […] In stage 1, we performed three rounds of experiment.
In the first round of experiment, four (4) solvent systems, i.e., isopropyl alcohol (IPA), diethyl ether (DEE), IPA:water (a mixture at a volume ratio of 95:5) and tetrahydrofuran (THF), were used. Thus in this first round of screening, 44 individual base-acid reactions were conducted in 44 vials.
First, Rx100.FA and each of the bases were mixed in a vial. […] In each of the 44 vials, 211.1 μL of the prepared liquid, which was equivalent to about 35 mg of Rx100.FA, was first dispensed. Then, one equivalent (molar) of each of the 11 bases was dispensed in its corresponding vial. For example, the base sodium hydroxide was added to vials 1, 12, 23 and 34. Similarly, L-histidine was added to vials 11, 22, 33 and 44. Observations were recorded upon addition of the bases in to Rx100.FA.
Second, the solvent in each mixture was depleted. All vials containing the mixtures of Rx100.FA and each of the bases were left under moderate vacuum and nitrogen bleed at room temperature overnight to evaporate the solvent. The vials were then kept under full vacuum for about an hour to make sure the solvents (ethanol and water) are evaporated. Observations on formation of solid upon evaporation were recorded.
Third, solvents were added in each vial to induce solid formation. In each vial, a stir bar and one of the four selected solvents (each 5 volumes with respect to the Rx100.FA) were added. The vials were then capped. IPA was added to the first set of 11 vials (1-11), DEE added to the second set of 11 vials (12-22), IPA:water added to the third set of 11 vials (23-33), and THF added to the fourth set of 11 vials (34-44). The vials were left at room temperature while stirring for at least 5 hours. Observations were recorded.
The first set of XRPD analyses were recorded as “wet” samples. The solids were dried under vacuum for 1 hour and at room temperature followed by XRPD as “dry” sample. The dry solid was then exposed to relative humidity of more than 90% overnight followed by XRPD analysis. For XRPD naming, a number and a letter were used. The number refers to the counter ion and the letter refers to the chronological discovered XRPD pattern of that particular salt.
In the second round of experiment of stage one, another four (4) solvent systems, i.e., methanol (MeOH), tert-Butyl methyl ether (tBME), ethyl acetate and toluene, were used in the same 44 vials as used in the first round experiment. The solvents in all 44 vials from the first round were evaporated to dryness under vacuum and nitrogen bleed. The 4 new solvents were then added into the vials. Methanol was added to the first set of 11 vials (1-11), tBME added to the second set of 11 vials (12-22), Ethyl acetate added to the third set of 11 vials (23-33), and Toluene added to the fourth set of 11 vials (34-44). The same procedure as in the first round of experiment was followed for these new solvents and samples were taken for XRPD analysis.
In the third round of experiment, effect of base equivalence was assessed. […] After addition of the extra base, the previous solvent was evaporated and new solvents added.

[1] = Rx100 salt formed with the named base, XRPD

Filterability (Rx100 salt formed with the named base): no
Crystallinity [1]: no
Polymorphic behavior [1]: Multiple patterns on XRPD
Solid upon evaporation (Y/N) (stage 3, 35 mg Rx100 free acid + base (label = base), 1.05 eq, L-lysine 2.00 eq): Gel
All solvents were evaporated to get a gel (stage 3, 1.05 eq, L-lysine 2.00 eq, solvent MeOH:Water [9:1]): Greasy.
All solvents were evaporated to get a gel (stage 3, 1.05 eq, L-lysine 2.00 eq, solvent MeOH): Greasy.
Substance: Glycine
